From BindingDB's records for doi:10.1021/jm0704550 (Cnrs, 2007)

Amino acid sequences for entries named in this document (tags omitted).
UniProt Q92847, whole entry: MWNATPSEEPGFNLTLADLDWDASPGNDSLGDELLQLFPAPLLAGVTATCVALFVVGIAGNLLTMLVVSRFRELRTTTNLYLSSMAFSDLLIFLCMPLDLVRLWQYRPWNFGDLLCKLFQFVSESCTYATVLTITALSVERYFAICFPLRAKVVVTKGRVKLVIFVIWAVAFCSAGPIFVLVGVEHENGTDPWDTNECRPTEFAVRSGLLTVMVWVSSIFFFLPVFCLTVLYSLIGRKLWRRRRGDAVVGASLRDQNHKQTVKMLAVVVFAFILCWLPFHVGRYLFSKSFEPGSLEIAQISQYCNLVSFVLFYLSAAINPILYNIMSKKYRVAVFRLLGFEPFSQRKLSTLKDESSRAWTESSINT

Molecular target: Growth hormone secretagogue receptor type 1 (Homo sapiens, UniProt Q92847)
Assay: Receptor Binding Studies
Method: Specific binding was determined by incubation of membranes from GHS-R1a transfected LLC cells with 125I-His9-ghrelin in the presence of increasing concentrations of compounds to obtain IC50. For the compounds behaving as agonists and displaying a high affinity binding for hGHS-R1a in radiolabeled binding experiments, the EC50 (the molar concentration of the agonist producing 50% of the maximal possible effect of that agonist) was determined using a dose-response curve. In the case of high-affinity antagonists, Kb values were determined using antagonist inhibition curves in the presence of 0.1 uM ghrelin (submaximal concentration).

COc1ccc(Cn2c(CCc3ccccc3)nnc2[C@@H](Cc2c[nH]c3ccccc23)NC(=O)C2CCCCN2)cc1 (single isomer, unassigned)
Kb: 27 nM

COc1ccc(Cn2c(CCc3ccccc3)nnc2[C@@H](Cc2c[nH]c3ccccc23)NC(=O)[C@H]2CCCCN2)cc1 [(2R)-N-[(1R)-2-(1H-indol-3-yl)-1-{4-[(4-methoxyphenyl)methyl]-5-(2-phenylethyl)-4H-1,2,4-triazol-3-yl}ethyl]piperidine-2-carboxamide]
Kb: 53 nM

COc1ccc(Cn2c(CCc3ccccc3)nnc2[C@@H](Cc2c[nH]c3ccccc23)NC(=O)CN)cc1 [JMV2959]
Kb (pH 7.3, 25 °C): 19 nM
